Laboratory results published in PubChem BioAssay AID652126 (The Scripps Research Institute Molecular Screening Center, 2013).
The list shows a part of the results, in another mix than the full data. Some structures show a salt or complex split into parts, the way the source records it. Active and inactive are the calls of the source.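 Rule for the calls: active = activation above the mean over all tested compounds plus 3 SD (cut at about 0.9% in these data); inactive = the rest.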

tested on: Nuclear hormone receptor DAF-12 (Strongyloides stercoralis); test: S. stercoralis DAF-12 nuclear receptor activators, primary screen, cell-based, luminescence, HEK293, GRIP1 co-expression, lit1-tk-luc (AID 652126); conditions: HEK293 ssDAF-12/GRIP1 lit1-tk-luc reporter, at 6.8 µM, stronger effect = higher value, % of 3 µM dafachronic acid response;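 note: 0% = DMSO-only wells and 100% = 3 µM delta7-dafachronic acid wells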

Row | SMILES | activation
1 | CP(=O)(OC12CC3CC(CC(C3)C1)C2)OC12CC3CC(CC(C3)C1)C2 | inactive: -1.43%
2 | CCOC(=O)c1ccc(NP(C)(=O)Oc2ccc(Cl)cc2)cc1 (centres undefined) | inactive: -1.36%
3 | Nc1ccc2c(ccc3cccnc32)n1.O=[N+]([O-])c1cc([N+](=O)[O-])c(O)c([N+](=O)[O-])c1 | inactive: -1.65%
4 | CP(=O)(Oc1ccccc1)N1CCOC1=O (centres undefined) | inactive: -1.31%
5 | CCc1ccc(OP(C)(=O)Nc2cccnc2)cc1 (centres undefined) | inactive: -1.39%
6 | COc1ccccc1OP(C)(=O)Nc1c(C)n(C)n(-c2ccccc2)c1=O (centres undefined) | inactive: -0.8%
7 | O=C(OCCCN1CCCC1)C(O)(c1ccccc1)C1CCCCC1 (centres undefined) | inactive: -1.07%
8 | CCN(CC)CC(O)COC(=O)C(O)(c1ccccc1)C1CCCCC1 (centres undefined) | inactive: -0.29%
9 | COc1ccc(OP(C)(=O)Nc2ccc(Br)cc2)cc1 (centres undefined) | inactive: -0.9%
10 | CN(C)C(=O)c1c([N+](=O)[O-])cc([N+](=O)[O-])cc1[N+](=O)[O-] | inactive: -1.81%
11 | CP(=O)(Nc1ccc(Cl)cc1)Oc1ccc(F)cc1 (centres undefined) | inactive: -1.39%
12 | COc1ccccc1OP(C)(=O)Nc1ccccc1Br (centres undefined) | inactive: -2.21%
13 | CC(C)(C)c1ccc(OP(C)(=O)O)cc1 | inactive: -1.08%
14 | CN(C)CCOC(=O)C(O)(c1ccccc1)C1CCCC1 (centres undefined) | inactive: -1.71%
15 | COc1ccc(OP(C)(=O)Nc2ccccn2)cc1 (centres undefined) | inactive: -1.01%
16 | COc1ccccc1OP(C)(=O)Nc1ccc(Br)cc1 (centres undefined) | inactive: -1.24%
17 | CCc1ccc(OP(C)(=O)O)cc1 | inactive: -1.36%
18 | CP(=O)(Nc1ccccn1)Oc1ccccc1 (centres undefined) | inactive: -1.11%
19 | COc1ccccc1OP(C)(=O)Nc1ccc(C)cc1C (centres undefined) | inactive: -1.19%
20 | Cc1c(NP(C)(=O)Oc2ccc(C(C)C)cc2)c(=O)n(-c2ccccc2)n1C (centres undefined) | inactive: -1.42%
21 | O=[N+]([O-])c1cc([N+](=O)[O-])c(Nc2ccccn2)c([N+](=O)[O-])c1 | inactive: -1.72%
22 | COc1ccc(OP(C)(=O)Nc2ccccc2Br)cc1 (centres undefined) | inactive: -1.27%
23 | COc1ccccc1OP(C)(=O)Nc1ccc(C)c(C)c1 (centres undefined) | inactive: -1.12%
24 | O=C1C(O)=C([N+](=O)[O-])C(=O)C(O)=C1[N+](=O)[O-] | inactive: -0.84%
25 | Cc1cc(C)cc(OP(C)(=O)Nc2cccc(C(F)(F)F)c2)c1 (centres undefined) | inactive: -1.38%

Row | SMILES | activation
26 | CCCCCCCCCCCCCCCC1C[N+](C)(C)CCOP(C)(=O)O1 (centres undefined) | inactive: -1.05%
27 | CP(=O)(Nc1ccc(Cl)cc1Cl)Oc1ccccc1 (centres undefined) | inactive: -1.31%
28 | CP(=O)(OCCOc1ccccc1)OCCOc1ccccc1 | inactive: -1.06%
29 | COc1ccc(OP(C)(=O)Nc2ccc(SC(F)(F)F)cc2)cc1 (centres undefined) | inactive: -1.86%
30 | CCOC(=O)c1ccc(NP(C)(=O)Oc2ccc(F)cc2)cc1 (centres undefined) | inactive: -1.38%
31 | CCN(CC)CCCNc1ccccc1[N+](=O)[O-].O=[N+]([O-])c1cc([N+](=O)[O-])c(O)c([N+](=O)[O-])c1 | inactive: -0.24%
32 | CCCCCOc1ccc(NP(C)(=O)Oc2ccc(Cl)cc2Cl)cc1 (centres undefined) | inactive: -0.7%
33 | O=[N+]([O-])c1cc([N+](=O)[O-])c(OC2CCCCC2O)c([N+](=O)[O-])c1 (centres undefined) | inactive: -1.22%
34 | CP(=O)(Nc1ccccc1)Oc1ccc(F)cc1 (centres undefined) | inactive: -1.8%
35 | CCN(CC)CCCOC(=O)C(O)(c1ccccc1)C1CCCCC1 (centres undefined) | inactive: -1.31%
36 | Cc1c([N+](=O)[O-])cc([N+](=O)[O-])c(Br)c1[N+](=O)[O-] | inactive: -0.21%
37 | CC(C)c1ccc(OP(C)(=O)Nc2ccc(SC(F)(F)F)cc2)cc1 (centres undefined) | inactive: -1.46%
38 | CP(=O)(Nc1ccccc1F)Oc1ccccc1 (centres undefined) | inactive: -1.56%
39 | O=[N+]([O-])c1cc([N+](=O)[O-])c(Nc2ccc(Cl)cc2)c([N+](=O)[O-])c1 | inactive: -1.47%
40 | COc1ccc2c(c1O)-c1c(O)c(OC)cc3c1[C@H](C2)[N+](C)(C)CC3.O=[N+]([O-])c1cc([N+](=O)[O-])c([O-])c([N+](=O)[O-])c1[O-] | inactive: -1.22%
41 | O=C(OCCN1CCN(CCOCc2ccccc2)CC1)C(O)(c1ccccc1)c1ccccc1 | inactive: -1.88%
42 | O=C(OC1CN2CCC1CC2)c1ccc([N+](=O)[O-])cc1 (centres undefined) | inactive: -0.8%
43 | CCOP(=O)(CC)OCC | inactive: -1.15%
44 | CCOP(C)(=S)SCC(=O)NC(C)(CC)C(=O)O (centres undefined) | inactive: -1.1%
45 | CP(=O)(Nc1ccc(SC(F)(F)F)cc1)Oc1ccc(F)cc1 (centres undefined) | inactive: -1.6%
46 | O=[N+]([O-])c1cc([N+](=O)[O-])c(C(F)(F)F)c([N+](=O)[O-])c1O | inactive: -0.82%
47 | Cc1ccccc1NP(C)(=O)Nc1ccccc1C | inactive: -0.9%
48 | CP(=O)(Nc1ccc2c(c1)OCCO2)Oc1ccccc1 (centres undefined) | inactive: -1.73%
49 | COc1ccc(NP(C)(=O)Oc2ccccc2OC)cc1 (centres undefined) | inactive: -1.16%
50 | CN(C)CCOC(=O)C(O)(c1ccccc1)C1CCCCC1 (centres undefined) | inactive: -0.91%

Row | SMILES | activation
51 | COc1ccc(OP(C)(=O)Nc2cccc(Br)c2)cc1 (centres undefined) | inactive: -0.86%
52 | Cc1c(C(c2ccc3c(c2)OCO3)c2c(C)n(C)n(-c3ccccc3)c2=O)c(=O)n(-c2ccccc2)n1C.O=[N+]([O-])c1cc([N+](=O)[O-])c(O)c([N+](=O)[O-])c1 | inactive: -1.86%
53 | Cc1cc(-c2cccc3ccccc23)c(C)cn1.O=[N+]([O-])c1cc([N+](=O)[O-])c(O)c([N+](=O)[O-])c1 | inactive: -1.19%
54 | O=[N+]([O-])c1cc([N+](=O)[O-])c(NCC2CCS(=O)(=O)C2)c([N+](=O)[O-])c1 (centres undefined) | inactive: -1.13%
55 | O=[N+]([O-])c1ccc(OP2(=O)COCCO2)cc1 (centres undefined) | inactive: -1.37%
56 | O=[N+]([O-])c1cc([N+](=O)[O-])c(Nc2nnnn2CCO)c([N+](=O)[O-])c1 | inactive: -1.05%
57 | CCOC(=O)C(CC)C1=NC(C)(C)Cc2ccccc21.O=[N+]([O-])c1cc([N+](=O)[O-])c(O)c([N+](=O)[O-])c1 (centres undefined) | inactive: -1.08%
58 | CCCOc1ccc(NP(C)(=O)Oc2ccc(Cl)cc2)cc1 (centres undefined) | inactive: -1.17%
59 | CP(=O)(Nc1ccc(SC(F)(F)F)cc1)Oc1ccccc1 (centres undefined) | inactive: -1.57%
60 | COc1ccc(-c2ccccn2)cc1.O=[N+]([O-])c1cc([N+](=O)[O-])c(O)c([N+](=O)[O-])c1 | inactive: -0.76%
61 | COc1ccccc1OP(C)(=O)Nc1c(C)cccc1C (centres undefined) | inactive: -1%
62 | CN1CCCCC1COC(=O)C1(O)c2ccccc2CCc2ccccc21 (centres undefined) | inactive: -0.85%
63 | CN(Cc1cccnc1)C(=O)COc1ccc(Cl)c(Cl)c1.O=[N+]([O-])c1cc([N+](=O)[O-])c(O)c([N+](=O)[O-])c1 | inactive: -0.89%
64 | O=[N+]([O-])c1cc([N+](=O)[O-])c(-n2nnc3ccccc32)c([N+](=O)[O-])c1 | inactive: -0.52%
65 | Cc1nc2ccc3ccccc3c2s1.O=[N+]([O-])c1cc([N+](=O)[O-])c(O)c([N+](=O)[O-])c1 | inactive: -0.48%
66 | O=[N+]([O-])c1cc([N+](=O)[O-])c(-c2cnn(-c3ccccc3)c2)c([N+](=O)[O-])c1 | inactive: -1.45%
67 | Cc1cc(C)cc(OP(C)(=O)Nc2ccc(C)cc2C)c1 (centres undefined) | inactive: -1.93%
68 | CCOC(=O)c1ccc(NP(C)(=O)Oc2cc(C)cc(C)c2)cc1 (centres undefined) | inactive: -1.95%
69 | COc1ccccc1OP(C)(=O)Nc1cccc(Br)c1 (centres undefined) | inactive: -0.92%
70 | Cc1cc(C)cc(OP(C)(=O)Nc2ccccn2)c1 (centres undefined) | inactive: -1.1%
71 | CP(=O)(Nc1cccc(Br)c1)Oc1ccccc1 (centres undefined) | inactive: -1.29%
72 | Cc1ccc(C)c(NP(C)(=O)Oc2ccccc2)c1 (centres undefined) | inactive: -0.97%
73 | O=C(O)c1cccc(Nc2c([N+](=O)[O-])cc([N+](=O)[O-])cc2[N+](=O)[O-])c1 | inactive: -0.97%
74 | CC1=NCCc2c1[nH]c1ccccc21.O=[N+]([O-])c1cc([N+](=O)[O-])c(O)c([N+](=O)[O-])c1 | inactive: 0.04%
75 | CC(C)(C)c1ccc(OP(C)(=O)Nc2ccc(SC(F)(F)F)cc2)cc1 (centres undefined) | inactive: -0.46%

Row | SMILES | activation
76 | Cc1cccc(C)c1OP(C)(N)=O (centres undefined) | inactive: -0.49%
77 | O=[N+]([O-])c1ccc2c(c1)C=Nc1ccccc1O2 | inactive: -1.3%
78 | O=[N+]([O-])c1cc([N+](=O)[O-])c(Nc2cccnc2)c([N+](=O)[O-])c1 | inactive: -1%
79 | COc1ccccc1OP(C)(=O)Nc1cc(Cl)ccc1C (centres undefined) | inactive: 0.25%
80 | COc1ccc(OP(C)(=O)Nc2cccc(F)c2)cc1 (centres undefined) | inactive: -1.02%
81 | Cc1cc(C)cc(OP(C)(N)=O)c1 (centres undefined) | inactive: -1.94%
82 | CCOC(=O)c1ccc(NP(C)(=O)Oc2ccccc2)cc1 (centres undefined) | inactive: -1.12%
83 | COc1ccccc1OP(C)(=O)Nc1ccc(C)cc1 (centres undefined) | inactive: -1.39%
84 | Cc1ccc(NP(C)(=O)Oc2ccccc2)c(C)c1 (centres undefined) | inactive: -0.58%
85 | CCN(CC)CCCOC(=O)C(O)(c1ccccc1)c1ccccc1 | inactive: -0.44%
86 | COc1ccccc1-c1ccccn1.O=[N+]([O-])c1cc([N+](=O)[O-])c(O)c([N+](=O)[O-])c1 | inactive: -1.34%
87 | CP(=O)(NC(=O)Nc1ccccc1)Oc1ccccc1 (centres undefined) | inactive: -1.08%
88 | CCc1ccc(OP(C)(=O)N2CCN(c3ccc([N+](=O)[O-])cc3)CC2)cc1 (centres undefined) | inactive: -2.21%
89 | Cc1cc(C)cc(OP(C)(=O)Nc2ccc(SC(F)(F)F)cc2)c1 (centres undefined) | inactive: -1.58%
90 | Cc1cccc(C)c1OP(C)(=O)Nc1ccc(SC(F)(F)F)cc1 (centres undefined) | inactive: -0.65%
91 | CP(=O)(Nc1ccc(SC(F)(F)F)cc1)Oc1ccc(Cl)cc1 (centres undefined) | inactive: -1.6%
92 | CP(=O)(Oc1ccccc1)OC(c1ccccc1)C(F)(F)F (centres undefined) | inactive: -1.16%
93 | CP(=O)(Nc1ccccn1)Oc1ccc(Cl)cc1 (centres undefined) | inactive: -0.35%
94 | CCOP(C)(=S)SCC(=O)NC(C)C(=O)O (centres undefined) | inactive: -1.26%
95 | CCOC(=O)c1ccc(NP(C)(=O)Oc2ccc(OC)cc2)cc1 (centres undefined) | inactive: -1.57%
96 | O=[N+]([O-])c1cc([N+](=O)[O-])c(O)c([N+](=O)[O-])c1.c1ccc(Oc2ccncc2)cc1 | inactive: -1.05%
97 | COc1ccccc1OP(C)(=O)Nc1ccccc1 (centres undefined) | inactive: -1.37%
98 | CP(=O)(Nc1ccccc1Br)Oc1ccccc1 (centres undefined) | inactive: -1.49%
99 | CP(=S)(Nn1cnnc1)Oc1ccccc1 (centres undefined) | inactive: -0.32%
